Target: PI3K (p110α/p85α) (Homo sapiens, UniProt P42336)
Experiment: ELISA
Assay type: binding

Chains of the proteins cited; added tags and fusions are not shown. Residues count along the entry.
UniProt P42336, whole entry: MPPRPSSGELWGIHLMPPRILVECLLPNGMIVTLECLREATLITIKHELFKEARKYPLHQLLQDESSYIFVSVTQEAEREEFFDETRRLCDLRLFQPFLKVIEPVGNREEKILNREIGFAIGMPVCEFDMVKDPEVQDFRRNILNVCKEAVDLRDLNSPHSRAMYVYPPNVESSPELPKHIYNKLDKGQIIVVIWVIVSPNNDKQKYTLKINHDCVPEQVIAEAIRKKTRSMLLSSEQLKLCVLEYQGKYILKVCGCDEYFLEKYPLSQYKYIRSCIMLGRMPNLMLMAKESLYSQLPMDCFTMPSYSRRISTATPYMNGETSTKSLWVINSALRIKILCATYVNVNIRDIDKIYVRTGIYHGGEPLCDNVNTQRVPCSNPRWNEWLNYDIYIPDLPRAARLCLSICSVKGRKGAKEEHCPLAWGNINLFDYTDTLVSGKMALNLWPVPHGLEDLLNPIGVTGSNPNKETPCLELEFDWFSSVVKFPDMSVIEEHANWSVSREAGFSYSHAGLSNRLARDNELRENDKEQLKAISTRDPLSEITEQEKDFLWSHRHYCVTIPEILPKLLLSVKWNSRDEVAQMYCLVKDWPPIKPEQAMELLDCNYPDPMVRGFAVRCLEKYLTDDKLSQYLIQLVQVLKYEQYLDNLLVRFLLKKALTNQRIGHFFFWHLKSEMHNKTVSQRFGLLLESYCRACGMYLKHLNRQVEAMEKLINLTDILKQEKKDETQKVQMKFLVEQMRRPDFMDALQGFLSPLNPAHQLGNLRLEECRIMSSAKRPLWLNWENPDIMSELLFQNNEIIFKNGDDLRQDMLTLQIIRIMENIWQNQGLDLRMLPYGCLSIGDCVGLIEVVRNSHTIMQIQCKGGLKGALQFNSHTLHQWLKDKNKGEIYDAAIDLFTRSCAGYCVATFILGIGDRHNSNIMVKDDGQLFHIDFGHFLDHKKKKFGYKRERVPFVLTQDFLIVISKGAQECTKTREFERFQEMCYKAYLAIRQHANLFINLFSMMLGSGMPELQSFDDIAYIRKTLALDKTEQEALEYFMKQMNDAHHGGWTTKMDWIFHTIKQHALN
UniProt P27986, 2-724 partner limits assumed: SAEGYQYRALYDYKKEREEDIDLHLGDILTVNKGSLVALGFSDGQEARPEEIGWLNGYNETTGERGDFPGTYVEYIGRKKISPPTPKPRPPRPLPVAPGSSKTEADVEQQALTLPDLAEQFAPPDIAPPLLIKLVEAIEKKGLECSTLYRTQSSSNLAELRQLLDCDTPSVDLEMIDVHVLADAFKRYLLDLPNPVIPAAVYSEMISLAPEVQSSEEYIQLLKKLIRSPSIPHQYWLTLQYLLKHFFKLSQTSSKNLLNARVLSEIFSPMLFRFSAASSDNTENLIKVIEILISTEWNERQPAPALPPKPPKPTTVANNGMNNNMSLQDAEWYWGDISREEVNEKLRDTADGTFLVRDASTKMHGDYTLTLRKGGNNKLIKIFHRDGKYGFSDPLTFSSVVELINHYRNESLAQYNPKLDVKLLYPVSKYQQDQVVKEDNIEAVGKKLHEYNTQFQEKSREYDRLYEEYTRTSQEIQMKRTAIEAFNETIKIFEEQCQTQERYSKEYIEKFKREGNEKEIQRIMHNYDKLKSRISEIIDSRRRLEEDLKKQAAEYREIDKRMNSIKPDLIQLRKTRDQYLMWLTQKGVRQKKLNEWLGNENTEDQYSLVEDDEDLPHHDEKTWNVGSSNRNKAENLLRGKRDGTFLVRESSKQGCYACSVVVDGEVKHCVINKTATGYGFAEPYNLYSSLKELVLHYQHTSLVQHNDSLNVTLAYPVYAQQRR

Compound | Kd [µM]
NC(=O)CC[C@H](NC(=O)CC[C@H](NC(=O)c1nccnc1N)C(=O)N1CCc2ccccc21)C(=O)O | 5
NC(=O)CC[C@H](NC(=O)CC[C@@H](NC(=O)c1nccnc1N)C(=O)N1CCc2ccccc21)C(=O)O | 32
Cc1ccccc1OCc1cn([C@H](CCC(=O)N[C@@H](CCC(N)=O)C(=O)O)C(=O)Nc2ccc3c(cnn3C(F)F)c2)nn1 | 9

Reference: paper PMC7675038, “A Single‐Stranded DNA‐Encoded Chemical Library Based on a Stereoisomeric Scaffold Enables Ligand Discovery by Modular Assembly of Building Blocks” (Advanced Science, 2020)
